For the test, the target named is TRPV1 (Homo sapiens, UniProt Q8NER1). Briefly: TRPV1 assays, inhibition of capsaicin response (cell line not stated for the IC50 values).

By UniProt entry, the sequences of proteins in these tests, tags left out.
UniProt Q8NER1, whole entry: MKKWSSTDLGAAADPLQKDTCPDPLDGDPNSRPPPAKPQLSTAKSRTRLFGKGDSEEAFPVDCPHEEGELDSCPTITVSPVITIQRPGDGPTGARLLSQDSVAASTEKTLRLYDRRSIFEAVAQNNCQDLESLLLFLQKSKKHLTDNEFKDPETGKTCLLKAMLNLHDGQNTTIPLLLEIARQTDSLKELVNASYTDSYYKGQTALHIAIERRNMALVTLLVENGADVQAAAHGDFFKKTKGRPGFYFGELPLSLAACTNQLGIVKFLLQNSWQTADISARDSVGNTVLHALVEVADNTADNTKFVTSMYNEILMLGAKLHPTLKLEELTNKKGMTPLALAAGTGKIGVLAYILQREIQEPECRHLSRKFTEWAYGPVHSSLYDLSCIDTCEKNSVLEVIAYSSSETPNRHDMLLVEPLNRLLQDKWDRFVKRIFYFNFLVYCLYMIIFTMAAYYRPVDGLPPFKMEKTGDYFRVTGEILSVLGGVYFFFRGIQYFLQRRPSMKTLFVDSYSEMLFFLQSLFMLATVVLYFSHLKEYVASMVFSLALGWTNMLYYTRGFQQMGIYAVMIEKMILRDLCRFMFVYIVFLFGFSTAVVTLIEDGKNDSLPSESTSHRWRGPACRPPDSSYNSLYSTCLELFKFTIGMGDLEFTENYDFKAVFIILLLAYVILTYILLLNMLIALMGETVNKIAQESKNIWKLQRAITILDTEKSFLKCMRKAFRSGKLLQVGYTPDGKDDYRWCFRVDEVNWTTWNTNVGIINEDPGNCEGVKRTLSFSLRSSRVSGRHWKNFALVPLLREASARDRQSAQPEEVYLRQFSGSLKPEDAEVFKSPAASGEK

pIC50: −log10 of the molar value.

Turning to `C/C=C1\NC(=O)[C@H](C)NC(=O)[C@H](C(C)C)NC(=O)[C@H](NC(=O)[C@H](Cc2ccccc2)NC(=O)[C@@H](CC(C)C)NC(=O)[C@@H](Cc2ccccc2)NC(C)=O)[C@@H](C)OC1=O` [compound 1, A-3302-B], the pIC50 (in general, the IC50 on a negative log10 scale, so that one unit is a factor of ten) was 2.88.

Values taken from patent publication US20140121168A1, “ANTAGONISTS OF TRPV1 RECEPTOR” (ANTAGONISTS OF TRPV1 RECEPTOR, priority 2011, published 2014).
